The assay concerns the target T1, NPR-B (Homo sapiens, UniProt P20594).
T1 construct: a functional assay using endogenously NPR-B expressing GTM-3 cells; endogenous in cells; host or cells: GTM-3 (transformed human trabecular meshwork cells)
T1 sequence (P20594 23-1047): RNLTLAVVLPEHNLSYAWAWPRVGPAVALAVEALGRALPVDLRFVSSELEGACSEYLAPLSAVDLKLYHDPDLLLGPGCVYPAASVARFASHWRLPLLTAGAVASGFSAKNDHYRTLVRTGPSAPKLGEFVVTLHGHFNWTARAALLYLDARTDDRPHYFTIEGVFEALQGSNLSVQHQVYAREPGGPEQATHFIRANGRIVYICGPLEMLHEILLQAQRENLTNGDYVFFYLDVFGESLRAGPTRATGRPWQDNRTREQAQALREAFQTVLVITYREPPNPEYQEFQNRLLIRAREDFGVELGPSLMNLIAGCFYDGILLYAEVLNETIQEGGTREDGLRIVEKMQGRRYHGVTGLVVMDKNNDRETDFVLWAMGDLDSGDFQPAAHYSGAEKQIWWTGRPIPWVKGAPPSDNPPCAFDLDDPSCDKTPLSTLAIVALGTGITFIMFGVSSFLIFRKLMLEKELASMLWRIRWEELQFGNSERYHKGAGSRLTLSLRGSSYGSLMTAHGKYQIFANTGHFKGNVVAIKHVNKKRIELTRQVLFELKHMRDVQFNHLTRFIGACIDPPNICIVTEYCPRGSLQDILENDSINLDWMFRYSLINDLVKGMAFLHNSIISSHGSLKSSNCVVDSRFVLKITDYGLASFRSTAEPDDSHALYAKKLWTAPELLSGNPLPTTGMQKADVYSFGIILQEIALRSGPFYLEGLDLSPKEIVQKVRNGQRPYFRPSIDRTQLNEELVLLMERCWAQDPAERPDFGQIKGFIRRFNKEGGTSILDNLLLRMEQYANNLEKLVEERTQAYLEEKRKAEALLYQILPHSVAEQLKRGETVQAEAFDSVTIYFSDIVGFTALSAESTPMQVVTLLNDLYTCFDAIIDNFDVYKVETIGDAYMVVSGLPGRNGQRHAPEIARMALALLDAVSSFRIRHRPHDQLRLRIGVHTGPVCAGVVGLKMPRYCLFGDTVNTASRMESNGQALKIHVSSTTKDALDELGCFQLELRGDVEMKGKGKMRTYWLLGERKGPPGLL
As to the kind of experiment: NPR-B induced production of cyclic GMP in GTM-3 cells. The assay is classed as cell-based. To be noted: group needs both EC50 and Emax criteria, checked A then B then C, read-out: Activity (group): NPR-B activation, EC50 and Emax (CNP = 100%). The procedure: The efficacy and potency of compounds to activate NPR-B were evaluated in a functional assay using endogenously NPR-B expressing GTM-3 cells (Pang et al. 1994, Curr Eye Res 13:51-63). In this assay the dose dependent production of cyclic GMP (cGMP) is determined and Emax (maximum activation) and EC50 values are calculated.
The cell culture medium is aspirated and each well is washed with 200 μl DMEM/Ham's F12=Medium (Gibco). Then, 200 μl Medium supplemented with 1 mM IBMX (3-Isobutyl-1-methyl-xanthin, Sigma) is added to each well and incubated for 15 min. at room temperature.
Final compound concentrations are in the range from 45 μM to 20 nM.

pEC50: −log10 of the molar value.

One may read the pEC50 as −log10 of the EC50, conventionally taken in molar units.

Regarding `CCCCCC(=O)N[C@H]1CSSC[C@@H](C(N)=O)NC(=O)[C@H](CO)NC(=O)[C@H]([C@@H](C)CC)NC(=O)[C@H](CCCNC(=N)N)NC(=O)[C@H](CC(=O)O)NC(=O)[C@H](CC(C)C)NC(=O)[C@H](CCCCN)NC(=O)[C@H](CC(C)C)NC(=O)CNC(=O)[C@H](Cc2ccccc2)NC(=O)[C@H]2CCN2C1=O` [compound 79], the pEC50 is above 6.00. Regarding `CC[C@H](C)[C@@H]1NC(=O)[C@H](CCCNC(=N)N)NC(=O)[C@H](CC(=O)O)NC(=O)[C@H](CC(C)C)NC(=O)[C@H](CCCCN)NC(=O)[C@H](CC(C)C)NC(=O)CNC(=O)[C@H](Cc2ccccc2)NC(=O)[C@H](Cc2c[nH]cn2)NC(=O)[C@@H](NC(=O)[C@H](CCSC)NC(C)=O)CSSC[C@@H](C(N)=O)NC(=O)[C@H](CO)NC1=O` [compound 14], the pEC50 was above 5.30. Regarding `CCCCCC(=O)N[C@H]1CSSC[C@@H](C(N)=O)NC(=O)[C@H](CO)NC(=O)[C@H]([C@@H](C)CC)NC(=O)[C@H](CCCNC(=N)N(C)C)NC(=O)[C@H](CC(=O)O)NC(=O)[C@H](CC(C)C)NC(=O)[C@H](CCCCN)NC(=O)[C@H](CC(C)C)NC(=O)CNC(=O)[C@H](Cc2ccccc2)NC(=O)[C@@H](C)NC1=O` [compound 109], the pEC50 is above 4.82.

For `CC[C@H](C)[C@@H]1NC(=O)[C@H](CCCNC(=N)N)NC(=O)[C@H](CC(=O)O)NC(=O)[C@H](CC(C)C)NC(=O)[C@H](CCCCCN)NC(=O)[C@H](CC(C)C)NC(=O)CNC(=O)[C@H](Cc2ccccc2)NC(=O)[C@@H](C)NC(=O)[C@@H](NC(=O)[C@@H](N)CCSC)CSSC[C@@H](C(N)=O)NC(=O)[C@H](CO)NC1=O` [compound 52], the pEC50 was above 5.30. Under `CCCCCC(=O)N[C@H]1CSSC[C@@H](C(N)=O)NC(=O)[C@H](CO)NC(=O)[C@H]([C@@H](C)CC)NC(=O)[C@H](CCCNC2=NCCN2)NC(=O)[C@H](CC(=O)O)NC(=O)[C@H](CC(C)C)NC(=O)[C@H](CCCCN)NC(=O)[C@H](CC(C)C)NC(=O)CNC(=O)[C@H](Cc2ccccc2)NC(=O)[C@@H](C)NC1=O` [compound 97] stands above 5.30. Under `CCCCCC(=O)N[C@H]1CSSC[C@@H](C(N)=O)NC(=O)[C@H](CO)NC(=O)[C@H]([C@@H](C)CC)NC(=O)[C@H](CCCNC(=N)N)NC(=O)[C@H](CC(=O)O)NC(=O)[C@H](CC(C)C)NC(=O)[C@H](CCCCN)NC(=O)[C@H](CC(C)C)NC(=O)CNC(=O)[C@H](Cc2cccc(F)c2)NC(=O)[C@@H](C)NC1=O` [compound 103] stands above 5.30. Take `CC[C@H](C)[C@@H]1NC(=O)[C@H](CCCNC(=N)N)NC(=O)[C@H](CS(=O)(=O)O)NC(=O)[C@H](CC(C)C)NC(=O)[C@H](CCCCN)NC(=O)[C@H](CC(C)C)NC(=O)CNC(=O)[C@H](Cc2ccccc2)NC(=O)[C@@H](C)NC(=O)[C@@H](NC(=O)[C@@H](N)CCSC)CSSC[C@@H](C(N)=O)NC(=O)[C@H](CO)NC1=O` [compound 55]: the pEC50 was above 5.30. Then `CCCCCC(=O)N[C@H]1CSSC[C@@H](C(N)=O)NC(=O)[C@H](CO)NC(=O)[C@H]([C@@H](C)CC)NC(=O)[C@H](CCCNC(=N)N)NC(=O)[C@H](CC(=O)O)NC(=O)[C@H](C2CCCCC2)NC(=O)[C@H](CCCCN)NC(=O)[C@H](CC(C)C)NC(=O)CNC(=O)[C@H](Cc2ccccc2)NC(=O)[C@@H](C)NC1=O` [compound 94], with above 5.30; and `CCCCCC(=O)N[C@H]1CSSCCNC(=O)[C@H](CO)NC(=O)[C@H]([C@@H](C)CC)NC(=O)[C@H](CCCNC(=N)N)NC(=O)[C@H](CC(=O)O)NC(=O)[C@H](CC(C)C)NC(=O)[C@H](CCCCN)NC(=O)[C@H](CC(C)C)NC(=O)CNC(=O)[C@H](Cc2ccccc2)NC(=O)[C@@H](C)NC1=O` [compound 120], with above 6.00. Then `CCCCCC(=O)N[C@H]1CSSC[C@@H](C(N)=O)NC(=O)[C@H](CO)NC(=O)[C@H]([C@@H](C)CC)NC(=O)[C@H](CCCNC(=N)N)NC(=O)[C@H](CC(=O)O)NC(=O)[C@H](CC(C)C)NC(=O)[C@H](CCC2CCNCC2)NC(=O)[C@H](CC(C)C)NC(=O)CNC(=O)[C@H](Cc2ccccc2)NC(=O)[C@@H](C)NC1=O` [compound 85], with above 6.00; and `CCCCCC(=O)N[C@H]1CSSC[C@@H](C(N)=O)NC(=O)[C@H](CO)NC(=O)[C@H]([C@@H](C)CC)NC(=O)[C@H](CCCNC(=N)N)NC(=O)[C@H](CC(=O)O)NC(=O)[C@H](CC(C)C)NC(=O)[C@H](CCCCN)NC(=O)[C@H](CC(C)C)NC(=O)CNC(=O)[C@H](Cc2ccccc2)NC(=O)[C@H]2CCCCN2C1=O` [compound 81], with above 6.00; and `CC[C@H](C)[C@@H]1NC(=O)[C@H](CCCNC(=N)N)NC(=O)[C@H](CC(=O)O)NC(=O)[C@H](CC(C)C)N(C)C(=O)[C@H](CCCCN)NC(=O)[C@H](CC(C)C)NC(=O)CNC(=O)[C@H](Cc2ccccc2)NC(=O)[C@@H](Cc2c[nH]cn2)NC(=O)[C@@H](NC(=O)[C@@H](N)CCSC)CSSC[C@@H](C(N)=O)NC(=O)[C@H](CO)NC1=O` [compound 47], with above 5.30. Under `CC[C@H](C)[C@@H]1NC(=O)[C@H](CCCNC(=N)N)NC(=O)[C@H](CC(=O)O)NC(=O)[C@H](CC(C)C)NC(=O)[C@H](CCCN)NC(=O)[C@H](CC(C)C)NC(=O)CNC(=O)[C@H](Cc2ccccc2)NC(=O)[C@@H](C)NC(=O)[C@@H](NC(=O)[C@@H](N)CCSC)CSSC[C@@H](C(N)=O)NC(=O)[C@H](CO)NC1=O` [compound 51] stands above 5.30; under `CCCCCC(=O)N[C@H]1CSSC[C@@H](C(N)=O)NC(=O)[C@H](CO)NC(=O)[C@H]([C@@H](C)CC)NC(=O)[C@H](CCCNC(=N)N)NC(=O)[C@H](CC(=O)O)NC(=O)[C@H](CC(C)C)NC(=O)[C@H](CCCCN)NC(=O)[C@H](CC(C)C)NC(=O)CNC(=O)[C@H](Cc2cccc(Cl)c2)NC(=O)[C@@H](C)NC1=O` [compound 77], above 6.00; under `CC[C@H](C)[C@@H]1NC(=O)[C@H](CCCNC(=N)N)NC(=O)[C@H](CC(=O)O)NC(=O)[C@H](CC(C)C)NC(=O)[C@@]2(C)CCCN2C(=O)[C@H](CC(C)C)NC(=O)CNC(=O)[C@H](Cc2ccccc2)NC(=O)[C@@H](C)NC(=O)[C@@H](NC(=O)[C@@H](N)CCSC)CSSC[C@@H](C(N)=O)NC(=O)[C@H](CO)NC1=O` [compound 74], above 5.30. As to `CC[C@H](C)[C@@H]1NC(=O)[C@H](CCCNC(=N)N)NC(=O)[C@H](CC(=O)O)NC(=O)[C@H](CC(C)C)NC(=O)[C@H](CCCCN)NC(=O)[C@H](CC(C)C)NC(=O)C(C)(C)NC(=O)[C@H](Cc2ccccc2)NC(=O)[C@@H](Cc2c[nH]cn2)NC(=O)[C@@H](NC(=O)[C@@H](N)CCSC)CSSC[C@@H](C(N)=O)NC(=O)[C@H](CO)NC1=O` [compound 36], the pEC50 is above 5.30.

As to `CC[C@H](C)[C@@H]1NC(=O)[C@H](CCCNC(=N)N)NC(=O)[C@H](CC(=O)O)NC(=O)[C@H](CC(C)C)NC(=O)[C@H](CCCCN)N(C)C(=O)[C@H](CC(C)C)NC(=O)CNC(=O)[C@H](Cc2ccccc2)NC(=O)[C@@H](Cc2c[nH]cn2)NC(=O)[C@@H](NC(=O)[C@@H](N)CCSC)CSSC[C@@H](C(N)=O)NC(=O)[C@H](CO)NC1=O` [compound 46], the pEC50 is above 5.30. Then `CCCCCC(=O)N[C@H]1CSSC[C@@H](C(N)=O)NC(=O)[C@H](CO)NC(=O)[C@H]([C@@H](C)CC)NC(=O)[C@H](CCCNC(=N)N)NC(=O)[C@H](CC(=O)O)NC(=O)[C@H](CC(C)C)NC(=O)[C@H](CCCCN)NC(=O)[C@H](CC(C)C)NC(=O)CNC(=O)[C@H](Cc2ccccc2Cl)NC(=O)[C@@H](C)NC1=O` [compound 76], with above 5.30; and `CC[C@H](C)[C@@H]1NC(=O)[C@H](CCCNC(=N)N)NC(=O)[C@H](CC(=O)O)NC(=O)[C@H](CC(C)C)NC(=O)[C@H](CCCCN)NC(=O)[C@H](CC(C)C)NC(=O)CNC(=O)[C@H](Cc2ccccc2)NC(=O)[C@@H](Cc2cccs2)NC(=O)[C@@H](NC(=O)[C@@H](N)CCSC)CSSC[C@@H](C(N)=O)NC(=O)[C@H](CO)NC1=O` [compound 44], with above 5.30. Turning to `CC[C@H](C)[C@@H]1NC(=O)[C@H](CCCNC(=N)N)NC(=O)[C@H](CC(=O)O)NC(=O)[C@H](CC(C)C)NC(=O)[C@H](CCCCN)NC(=O)[C@H](CC(C)C)NC(=O)CNC(=O)[C@H](Cc2ccccc2)NC(=O)[C@@H](C)NC(=O)[C@@H](NC(=O)[C@@H](N)CCSC)CSSCCNC(=O)[C@H](CO)NC1=O` [compound 61], the pEC50 is above 6.00.
